From patent US12336991B2, “Factor XIIA inhibitors” (UNIVERSITY OF LEEDS, priority 2018, dated 2025)

By UniProt entry, the sequences of proteins in these tests, tags left out. Residues count along the entry.
UniProt P00748, 373-615 limits assumed: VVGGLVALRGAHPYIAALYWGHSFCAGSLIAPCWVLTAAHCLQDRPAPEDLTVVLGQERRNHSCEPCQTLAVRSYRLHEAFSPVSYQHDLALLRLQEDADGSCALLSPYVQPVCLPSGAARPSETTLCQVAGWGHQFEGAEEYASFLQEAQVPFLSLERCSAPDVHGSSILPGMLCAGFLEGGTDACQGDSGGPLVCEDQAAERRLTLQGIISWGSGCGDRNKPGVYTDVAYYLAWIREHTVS
UniProt P00748, 20-372 partner limits assumed: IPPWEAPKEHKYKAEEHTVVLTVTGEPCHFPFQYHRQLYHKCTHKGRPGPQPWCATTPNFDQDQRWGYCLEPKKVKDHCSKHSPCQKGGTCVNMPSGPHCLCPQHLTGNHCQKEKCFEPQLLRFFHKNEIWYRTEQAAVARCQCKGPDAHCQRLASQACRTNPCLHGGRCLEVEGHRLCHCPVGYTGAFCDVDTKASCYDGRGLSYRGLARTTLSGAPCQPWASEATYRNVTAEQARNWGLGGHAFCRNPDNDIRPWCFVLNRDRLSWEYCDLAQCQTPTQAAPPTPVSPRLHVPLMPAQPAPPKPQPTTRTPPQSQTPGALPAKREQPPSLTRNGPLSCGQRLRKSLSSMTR
UniProt P00742, 235-488 limits assumed: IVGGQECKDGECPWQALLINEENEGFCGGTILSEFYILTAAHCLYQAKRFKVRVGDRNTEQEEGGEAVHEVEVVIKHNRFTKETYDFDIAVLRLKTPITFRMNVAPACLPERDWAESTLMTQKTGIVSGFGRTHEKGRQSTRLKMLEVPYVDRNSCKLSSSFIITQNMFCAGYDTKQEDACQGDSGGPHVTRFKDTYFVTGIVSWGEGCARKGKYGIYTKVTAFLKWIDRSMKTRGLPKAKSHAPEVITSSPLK
UniProt P00742, 41-179 partner limits assumed: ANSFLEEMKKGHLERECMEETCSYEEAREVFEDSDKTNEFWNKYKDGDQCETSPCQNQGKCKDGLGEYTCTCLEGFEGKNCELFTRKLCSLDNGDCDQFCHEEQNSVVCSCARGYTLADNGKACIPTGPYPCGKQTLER

Columns and labels:
FXIIa = FXIIa (Homo sapiens, UniProt P00748); test: Determination of Factor XIIa inhibition, chromogenic substrate S-2302 assay; conditions: read-out: FXIIa alpha (Human) Ki
Description: (§1) The activities of the compounds of the invention have been determined in vitro using the following assays protocols for the screening of activity of FXIIa and other proteases. Each of these assays were performed in a purified system employing the use of chromogenic assays in microplate plate wells. Chromogenic peptide substrates mimicking natural protein substrates are attached via an amide bond to a chromogenic group. Paranitroaniline (pNA) is released from the peptide following catalyses by the proteolytic enzyme; the absorbance increases and can be monitored at 405 nm.
(§2) All compounds were dissolved in 100% (v/v) DMSO to a stock concentration of 10 mM, the highest concentration of compound used in each assay is 500 μM. The final concentrations of DMSO were 5% (v/v) in 50 mM Tris 137 mM NaC pH 7.4. Where no test compound was added a final concentration of 5% DMSO was employed.
Determination of Factor XIa Inhibition
Factor XIa activity was measured using a chromogenic substrate S-2302 (Chromogenix). […] Kinetic readings at 405 nm were monitored every 12 secs for a total duration of 3 hours at 37° C. Gradients of initial rates were determined and employed to calculate IC50 values. […]

thrombin = thrombin (Homo sapiens, UniProt P00734); test: Determination of selectivity: thrombin inhibition, chromogenic substrate GPR assay; conditions: fold selectivity for FXIIa over thrombin
Description: as §1, §2
(§3) Determination of Selectivity
(§4) To determine selectivity of test compounds, these test compounds were assayed for inhibitory activity against other serine proteases including FXa and thrombin. […] Kinetic readings at 405 nm were monitored every 12 secs for a total duration of 3 hours at 37° C. Gradients of initial rates were determined and employed to calculate IC50 values. […]
(§5) Where [Substrate] denotes the concentration of substrate used in the assay and Km is the determined value of each enzyme with its own substrate. […]

FXa = FXa (Homo sapiens, UniProt P00742); test: Determination of selectivity: FXa inhibition, chromogenic substrate S2765 assay; conditions: fold selectivity for FXIIa over FXa
Description: as §1, §2, §3, §4, §5

Row | Ki (FXIIa) | Thrombin (human)/FXIIa alpha (human) (thrombin) | FXa (human)/FXIIa alpha (human) (FXa) | SMILES
1 | > 2000 nM | ++ (fold selectivity value of 10 to 100) | ∘∘ | Cn1nnc2cc(CNC(=O)[C@@H]3C[C@@H](Cc4ccc(-c5cccnc5)cc4)CN3C(=O)[C@H]3C[C@@H](c4ccccc4)CN3)ccc21
2 | > 2000 nM | + (fold selectivity values less than 10) | ∘∘ | NCc1ccc(CNC(=O)[C@@H]2CCCN2C(=O)[C@H](N)CCC(=O)N2CCC(C(F)(F)F)C2)cc1 (stereo partly drawn)
